Measured values: ChEMBL document CHEMBL4411326 (J Med Chem, 2019)

Chains of the proteins cited; added tags and fusions are not shown.
UniProt Q05941, whole entry: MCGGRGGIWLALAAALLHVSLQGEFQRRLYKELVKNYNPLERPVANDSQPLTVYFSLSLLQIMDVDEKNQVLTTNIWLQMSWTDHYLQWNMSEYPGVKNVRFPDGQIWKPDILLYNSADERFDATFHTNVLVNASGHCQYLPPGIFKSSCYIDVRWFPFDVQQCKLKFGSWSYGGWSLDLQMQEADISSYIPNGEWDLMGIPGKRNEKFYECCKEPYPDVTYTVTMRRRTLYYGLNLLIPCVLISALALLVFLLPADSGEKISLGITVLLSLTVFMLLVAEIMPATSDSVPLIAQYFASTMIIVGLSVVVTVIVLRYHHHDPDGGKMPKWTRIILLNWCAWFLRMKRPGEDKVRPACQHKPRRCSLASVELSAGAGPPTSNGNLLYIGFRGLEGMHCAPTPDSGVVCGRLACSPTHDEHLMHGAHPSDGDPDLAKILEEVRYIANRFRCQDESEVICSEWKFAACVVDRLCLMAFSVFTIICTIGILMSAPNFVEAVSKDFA

Target: Neuronal acetylcholine receptor subunit alpha-7 (Rattus norvegicus) (UniProt Q05941)
Assay: Agonist activity at rat alpha7 nAChR expressed in Xenopus laevis oocytes assessed as increase in intracellular Ca2+ levels at 0.025 to 250 uM by calcium flux assay relative to ACh
Type: cell-based

Compound | fold change (FC)
N[C@@H]1[C@@H]2CC[C@@H](C2)[C@H]1c1ccc(Cl)nc1 | 3
N[C@@H]1[C@@H]2CC[C@@H](C2)[C@H]1c1cccnc1 | 3
